IC50 data for one compound are collected here from patent US20060247231A1, “Amide and ester matrix metalloproteinase inhibitors” (Warner-Lambert Company LLC, priority 2003, published 2006).

The assay concerns the target MMP-13 catalytic domain (MMP-13CD) (Homo sapiens, UniProt P45452). In words: MMP-13 catalytic domain inhibition (Biological Methods 1, 2, or 5). To be noted: read-out: MMP-13CD IC50. The method, then:
Thiopeptolide substrates show virtually no decomposition or hydrolysis at or below neutral pH in the absence of a matrix metalloproteinase enzyme. A typical thiopeptolide substrate commonly utilized for assays is Ac-Pro-Leu-Gly-thioester-Leu-Leu-Gly-OEt. A 100 μL assay mixture will contain a suitable amount of the MMP enzyme such as an amount described in Ye Qi-Zhuang, et al., 1996, supra, 50 mM of N-2-hydroxyethylpiperazine-N′-2-ethanesulfonic acid buffer (“HEPES,” pH 7.0), 10 mM CaCl2, 100 μM thiopeptolide substrate, and 1 mM 5,5′-dithio-bis-(2-nitro-benzoic acid) (DTNB). The thiopeptolide substrate concentration may be varied, for example from 10 to 800 μM to obtain Km and Kcat values. The change in absorbance at 405 nm is monitored on a Thermo Max microplate reader (molecular Devices, Menlo Park, Calif.) at room temperature (22° C.). The calculation of the amount of hydrolysis of the thiopeptolide substrate is based on E412=13600 M^−1 cm^−1 for the DTNB-derived product 3-carboxy-4-nitrothiophenoxide. […]
Some representative compounds of Formula I have been evaluated according to Biological Method 1 for their ability to inhibit MMP-13 and other MMP enzymes, including MMP-1, MMP-2, MMP-3, MMP-7, MMP-8, MMP-9, MMP-12, MMP14, and MMP-17. […]

Broadly, the IC50 is the point on the concentration scale where inhibition reaches its midpoint. In the case of `COc1ccc(CC(=O)Nc2ccc3ncn(Cc4ccc(C(=O)O)cc4)c(=O)c3c2)cc1`, the IC50 was 35 nM.
